Measurements: PMC10888688 (International Journal of Molecular Sciences, 2024)

Legend:
[1] = test system: Acinetobacter baumannii ATCC BAA-1798; test: MIC, A. baumannii; format: cell-based; conditions: A. baumannii ATCC BAA-1798; broth dilution, overnight at 37 °C, peptide 0 to 16 μM
Protocol: (§1) Typically, an overnight bacterial culture was grown to the mid-log phase on a shaker at 183 rpm, at 37 °C, and then diluted in 2X Mueller Hinton (MH) broth (Millipore-Sigma^TM, Saint Louis, MO, USA) to achieve a final OD of 0.002. In a 96-well plate, 100 μL of the diluted bacterial culture along with 100 μL of peptide, concentrations ranging from 0 μM to 16 μM, was added and incubated overnight at 37 °C. Peptide concentrations were estimated by UV absorbance at a wavelength of 274 nm using a molar extinction coefficient (ε) of 1420 M^−1 cm^−1. Bacterial growth inhibition was determined by absorbance of 96 well plates at OD600 nm using a Cytation spectrophotometer (Agilent, Santa Clara, CA, USA).

[2] = test system: Streptococcus pyogen ATCC 19615; test: MIC, broth dilution, S. pyogenes; format: cell-based, Streptococcus pyogenes; conditions: MH broth, overnight at 37 °C, peptide 0 to 16 μM, OD600, S. pyogenes ATCC 19615
Protocol: as §1

[3] = test system: Enterococcus faecalis ATCC 29212; test: MIC, broth dilution, E. faecalis; format: cell-based; conditions: MH broth, overnight at 37 °C, peptide 0 to 16 μM, OD600, E. faecalis ATCC 29212
Protocol: as §1

[4] = test system: Klebsiella pneumoniae ATCC 13883; test: MIC, broth dilution, K. pneumoniae; format: cell-based; conditions: MH broth, overnight at 37 °C, peptide 0 to 16 μM, OD600, K. pneumoniae ATCC 13883
Protocol: as §1

[5] = test system: Escherichia coli ATCC 25922; test: MIC, broth dilution, E. coli; format: cell-based; conditions: MH broth, overnight at 37 °C, peptide 0 to 16 μM, OD600, E. coli ATCC 25922
Protocol: as §1

Compound | MIC (AB) [1] | MIC (SP) [2] | MIC (EF) [3] | MIC (KP) [4] | MIC (EC) [5]
CC[C@H](C)[C@H](NC(=O)[C@@H](NC(=O)[C@@H]1CCCN1C(=O)[C@@H](N)C(C)C)[C@@H](C)CC)C(=O)N[C@@H](Cc1ccc(O)cc1)C(=O)N[C@H]1CSSC[C@@H](C(=O)N[C@@H](CCC(N)=O)C(=O)N[C@@H](CCCNC(=N)N)C(=O)N[C@@H](CCSC)C(N)=O)NC(=O)[C@H](CCCCN)NC(=O)CNC(=O)[C@H]([C@@H](C)O)NC(=O)[C@H](CCCNC(=N)N)NC(=O)[C@H](CCCNC(=N)N)NC(=O)[C@H](CC(N)=O)NC1=O [VM16] | >16 µM | 4 µM (≈ 7.74 µg/mL) | 4 µM (≈ 7.74 µg/mL) |  | 
CC[C@H](C)[C@H](N)C(=O)N[C@H](C(=O)N[C@@H](Cc1ccc(O)cc1)C(=O)N[C@H]1CSSC[C@@H](C(=O)N[C@@H](CCC(N)=O)C(=O)N[C@@H](CCCNC(=N)N)C(=O)N[C@@H](CCSC)C(N)=O)NC(=O)[C@H](CCCCN)NC(=O)CNC(=O)[C@H]([C@@H](C)O)NC(=O)[C@H](CCCNC(=N)N)NC(=O)[C@H](CCCNC(=N)N)NC(=O)[C@H](CC(N)=O)NC1=O)[C@@H](C)CC [IM14] | >16 µM | >16 µM | >16 µM | >16 µM | >16 µM

≈ marks a conversion by molar mass, not a printed value.
